The record followed here is US20080287479A1, “INHIBITORS OF SERINE PALMITOYLTRANSFERASE” (Pfizer Inc, priority 2006, published 2008).

Protein sequences, listed by entry. Tags and fused reporters are not part of them. Lines headed by an entry give the natural chain unless they say otherwise; changes in a name come on top.
UniProt O15270: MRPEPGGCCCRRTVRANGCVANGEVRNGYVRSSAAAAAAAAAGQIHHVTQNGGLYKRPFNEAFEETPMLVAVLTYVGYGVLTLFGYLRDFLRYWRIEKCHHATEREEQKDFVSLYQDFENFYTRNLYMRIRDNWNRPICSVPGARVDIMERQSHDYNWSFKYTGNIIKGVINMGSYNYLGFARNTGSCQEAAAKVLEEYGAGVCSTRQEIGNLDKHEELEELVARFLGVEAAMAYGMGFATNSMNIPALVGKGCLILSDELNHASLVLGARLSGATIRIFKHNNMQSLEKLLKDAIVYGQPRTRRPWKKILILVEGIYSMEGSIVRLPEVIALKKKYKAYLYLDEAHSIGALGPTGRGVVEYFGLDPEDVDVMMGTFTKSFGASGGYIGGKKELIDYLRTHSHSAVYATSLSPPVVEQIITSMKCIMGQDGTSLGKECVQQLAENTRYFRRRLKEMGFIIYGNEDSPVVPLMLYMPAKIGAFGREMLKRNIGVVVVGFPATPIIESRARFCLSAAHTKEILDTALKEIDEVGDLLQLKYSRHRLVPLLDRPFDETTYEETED

The target in the experiment is Serine Palmitoyl Transferase (SPT); microsomes from HEK 293 cells stably transfected with human LCB2 subunit of SPT (Homo sapiens, UniProt O15270). Kind of experiment: SPT flashplate assay. In kind it is biochemical. As to conditions: read-out: SPTISF IC50; microsomes of HEK 293 LCB2 cells, 3H-serine and palmitoyl CoA, phospholipid coated flashplate, 18-24 hours at room temperature.
The term IC50 denotes the concentration needed to halve the response being measured. On to `CNC(=O)c1cc2[nH]c(=O)n(C3CCN(CC(F)c4ccc(Cl)cc4)CC3)c2cc1F` (stereo not shown), for which the IC50 was determined as 37 nM.
`CNC(=O)c1cc2[nH]c(=O)n(C3CCN(CC(O)c4ccc(Cl)cc4)CC3)c2cc1F` (stereo not shown): the IC50 worked out at 5.4 nM.
The result for `COC(=O)c1cc2[nH]c(=O)n(C3CCN(CC(O)c4ccc(Cl)cc4)CC3)c2cc1F` (stereo not shown) reads 12 nM; that for `O=c1[nH]c2cc(-c3nnn[nH]3)ccc2n1C1CCN(CC(O)c2ccc(Cl)cc2)CC1` (stereo not shown), 3.1 nM.
The result for `CNC(=O)c1cc2[nH]c(=O)n(C3CCN(CC(=O)c4ccc(Cl)cc4)CC3)c2cc1F` reads 6.3 nM; that for `COC(=O)c1cc2[nH]c(=O)n(C3CCN(CC(=O)c4ccc(Cl)cc4)CC3)c2cc1F`, 14 nM; that for `O=C(CN1CCC(n2c(=O)[nH]c3cc(-c4nnn[nH]4)ccc32)CC1)c1ccc(Cl)cc1`, 0.89 nM.
Turning to `O=C(O)c1cc2[nH]c(=O)n(C3CCN(CC(O)c4ccc(Cl)cc4)CC3)c2cc1F` (stereo not shown), the IC50 amounted to 35 nM.
Regarding `CCc1ccc(C(O)CN2CCC(n3c(=O)[nH]c4cc(C(=O)NC)c(F)cc43)CC2)cc1` (stereo not shown), the IC50 is 17 nM.
The result for `O=c1[nH]c(-c2ccc3c(c2)[nH]c(=O)n3C2CCN(CC(O)c3ccc(Cl)cc3)CC2)no1` (stereo not shown) reads 3 nM.
